Test results reported in publication PMC7587601, “A Rose Extract Protects the Skin against Stress Mediators: A Potential Role of Olfactory Receptors” (Molecules, 2020).

Tests used:
Type in all cases: cell-based
[1] = biological target: T1, OR11H4 (Homo sapiens, UniProt Q8NGC9); assay: CRE-Luciferase cAMP functional assay, HEK293T-RTP1S/RTP2 cells transfected with OR11H4
T1 construct: expressed in transfected cells; host or cells: HEK293T-RTP1S/RTP2
T1 sequence (Q8NGC9 1-324): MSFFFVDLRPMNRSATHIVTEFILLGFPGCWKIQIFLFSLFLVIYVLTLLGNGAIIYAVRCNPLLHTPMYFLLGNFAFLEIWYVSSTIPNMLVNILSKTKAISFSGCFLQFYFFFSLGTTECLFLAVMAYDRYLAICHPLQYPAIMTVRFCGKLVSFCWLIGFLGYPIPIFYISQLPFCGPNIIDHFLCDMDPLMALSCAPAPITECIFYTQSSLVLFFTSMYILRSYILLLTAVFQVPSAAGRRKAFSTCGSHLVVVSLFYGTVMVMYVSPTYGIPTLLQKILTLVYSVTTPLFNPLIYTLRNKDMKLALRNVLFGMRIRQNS
Procedure: (§1) Measurement of intracellular levels of cAMP on HEK293T-RTP1S/RTP2 cells transfected with either a plasmid encoding the indicated odorant receptor (OR10A6, OR2AG2, or OR11H4), or an empty vector, was used to detect olfactory receptor activity (see Supplementary Materials Figure S2). A total of 18 compounds were screened. Dose-response curves were constructed for selected hits and the EC50 values were determined. These compounds were randomly selected based on their naturality, their capacity to bind ORs based on data from the literature, and on the likelihood of finding these molecules with a high percentage in flowers extracts.
(§2) Measurements of OR activation are based on the CRE-Luciferase gene reporter assay. […] Luminescence emission was measured using either a Spectra Max M5 reader (Molecular Devices, Sunnyvale, CA, USA) or a FLUOstar Optima reader (BMG LABTECH GmbH, Offenburg, Germany). […] The concentration response curves were analyzed with Excel or GraphPad Prism 8.3.0 softwares (San Diego, CA, USA). […]
(§3) encoding individual ORs and the cAMP reporter gene CRE-Luc vector (pGL4.29 [luc2P/CRE/Hygro]) (Promega) using TransIT-LT1 Transfection reagent (Mirus Bio, #MIR2300). […] After four hours of incubation under carefully controlled conditions, cells were lysed by addition of 50 μL of Lysis buffer and processed for luminescence measurement. […]

[2] = biological target: T2, OR2AG2 (Homo sapiens, UniProt A6NM03); assay: CRE-Luciferase cAMP functional assay, HEK293T-RTP1S/RTP2 cells transfected with OR2AG2
T2 construct: expressed in transfected cells; host or cells: HEK293T-RTP1S/RTP2
T2 sequence (A6NM03 1-316): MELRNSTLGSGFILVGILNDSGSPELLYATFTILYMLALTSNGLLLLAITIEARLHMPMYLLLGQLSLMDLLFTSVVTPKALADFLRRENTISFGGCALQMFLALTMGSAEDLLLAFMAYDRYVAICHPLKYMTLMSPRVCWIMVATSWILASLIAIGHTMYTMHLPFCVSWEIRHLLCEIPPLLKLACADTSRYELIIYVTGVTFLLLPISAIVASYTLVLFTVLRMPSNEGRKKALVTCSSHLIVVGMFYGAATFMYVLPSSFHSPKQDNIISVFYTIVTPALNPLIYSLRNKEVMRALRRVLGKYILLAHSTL
Procedure: as §1, §2, §3

[3] = biological target: T3, OR10A6 (Homo sapiens, UniProt Q8NH74); assay: CRE-Luciferase cAMP functional assay, HEK293T-RTP1S/RTP2 cells transfected with OR10A6
T3 construct: expressed in transfected cells; host or cells: HEK293T-RTP1S/RTP2
T3 sequence (Q8NH74 1-314): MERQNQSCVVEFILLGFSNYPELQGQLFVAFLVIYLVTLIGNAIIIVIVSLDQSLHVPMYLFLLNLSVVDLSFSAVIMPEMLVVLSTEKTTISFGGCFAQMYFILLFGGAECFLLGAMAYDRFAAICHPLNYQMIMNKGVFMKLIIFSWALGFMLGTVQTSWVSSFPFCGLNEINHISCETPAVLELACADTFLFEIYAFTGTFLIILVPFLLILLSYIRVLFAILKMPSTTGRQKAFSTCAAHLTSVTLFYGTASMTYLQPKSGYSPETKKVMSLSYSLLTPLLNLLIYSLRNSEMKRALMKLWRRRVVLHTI
Procedure: as §1, §2, §3

Structure (SMILES): CC(=O)/C=C/C1C(C)=CCCC1(C)C (stereo not drawn) [α-Ionone]
- EC50 [1]: > 316 µM
- EC50 [2]: > 316 µM
- EC50 [3]: 7.48 µM
- activation of OR10A6 (in words) [3]: specifically activated OR10A6
